From US6890920B2, “Quaternary ammonium compounds” (Pharmacia & Upjohn Company, priority 1992, dated 2005)

Sequences of proteins named here, by UniProt entry; tags and fusion partners are left off. A change or cut given only in a name is not applied to a line headed by its entry.
UniProt P11229: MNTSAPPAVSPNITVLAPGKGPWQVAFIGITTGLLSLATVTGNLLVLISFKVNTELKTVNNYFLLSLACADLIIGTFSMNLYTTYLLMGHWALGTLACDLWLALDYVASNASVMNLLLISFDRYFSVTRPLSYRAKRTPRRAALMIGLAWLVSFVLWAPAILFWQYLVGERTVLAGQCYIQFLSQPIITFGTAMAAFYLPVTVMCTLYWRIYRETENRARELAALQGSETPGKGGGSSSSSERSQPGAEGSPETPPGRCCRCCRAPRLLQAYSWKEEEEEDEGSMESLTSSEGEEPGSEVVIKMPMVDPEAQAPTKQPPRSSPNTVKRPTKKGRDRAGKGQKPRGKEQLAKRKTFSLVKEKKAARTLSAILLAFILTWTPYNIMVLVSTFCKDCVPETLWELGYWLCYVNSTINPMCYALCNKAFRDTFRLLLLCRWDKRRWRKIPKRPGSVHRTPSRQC
UniProt P08172, whole entry: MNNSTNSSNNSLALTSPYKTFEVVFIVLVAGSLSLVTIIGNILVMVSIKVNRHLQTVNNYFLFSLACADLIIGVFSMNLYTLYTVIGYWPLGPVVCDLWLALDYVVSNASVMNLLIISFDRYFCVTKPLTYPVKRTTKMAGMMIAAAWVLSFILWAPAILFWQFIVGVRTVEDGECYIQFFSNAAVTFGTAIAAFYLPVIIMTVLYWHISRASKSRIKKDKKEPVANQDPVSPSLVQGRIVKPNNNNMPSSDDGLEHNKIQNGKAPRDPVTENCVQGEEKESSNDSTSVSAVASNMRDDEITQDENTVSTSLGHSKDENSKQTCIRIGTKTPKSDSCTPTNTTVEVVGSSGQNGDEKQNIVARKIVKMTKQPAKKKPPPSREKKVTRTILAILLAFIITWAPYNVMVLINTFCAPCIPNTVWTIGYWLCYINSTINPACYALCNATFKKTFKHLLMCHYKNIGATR
UniProt P20309, whole entry: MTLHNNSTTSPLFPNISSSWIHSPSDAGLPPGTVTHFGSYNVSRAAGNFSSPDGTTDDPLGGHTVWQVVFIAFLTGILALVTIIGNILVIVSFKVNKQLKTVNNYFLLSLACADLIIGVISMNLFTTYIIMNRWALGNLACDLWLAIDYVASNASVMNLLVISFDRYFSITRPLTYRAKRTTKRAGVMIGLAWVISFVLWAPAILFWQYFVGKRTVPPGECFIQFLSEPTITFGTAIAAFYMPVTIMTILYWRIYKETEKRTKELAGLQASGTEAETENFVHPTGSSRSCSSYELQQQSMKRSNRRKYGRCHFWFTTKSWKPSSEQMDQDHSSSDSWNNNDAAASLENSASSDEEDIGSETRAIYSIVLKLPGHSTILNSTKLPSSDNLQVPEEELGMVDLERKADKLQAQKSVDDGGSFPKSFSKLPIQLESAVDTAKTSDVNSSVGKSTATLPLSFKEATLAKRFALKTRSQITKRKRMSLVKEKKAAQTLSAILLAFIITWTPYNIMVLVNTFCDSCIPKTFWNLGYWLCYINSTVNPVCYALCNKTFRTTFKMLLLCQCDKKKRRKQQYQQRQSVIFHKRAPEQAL

What was measured:
muscarinic receptor M1 = target: T1, muscarinic receptor M1 (Homo sapiens, UniProt P11229); experiment: Muscarinic receptor subtype M1 binding assay, radioligand displacement
T1 construct: expressed in transfected cells

muscarinic receptor M2 = target: T2, muscarinic receptor M2 (Homo sapiens, UniProt P08172); experiment: Muscarinic receptor subtype M2 binding assay, radioligand displacement
T2 construct: expressed in transfected cells

muscarinic receptor M3 = muscarinic receptor M3 (Homo sapiens, UniProt P20309); experiment: Muscarinic receptor subtype M3 binding assay, radioligand displacement

CC(C)[N+]1(C)[C@@H]2CC[C@H]1C[C@@H](OC(=O)C(CO)c1ccccc1)C2 (stereo partly drawn) [Ipratropium, 8-isopropylnoratropine methobromide, reference compound]
Ki (muscarinic receptor M1): 0.46 nM | Ki (muscarinic receptor M2): 0.17 nM | Ki (muscarinic receptor M3): 0.38 nM
